Biological target: T1, AR (Homo sapiens, UniProt P10275)
T1 construct: endogenous in cells; host or cells: VCaP cells
Assay: VCAP AR Degradation Assay
Type: cell-based
Conditions: VCaP cells, 24 h
Procedure: VCAP AR Degradation Assay. Test compounds were pre-dispensed into a Corning CellBind 96-well clear bottom plate (Cat #3300) using an acoustic dispenser to make a 10-point concentration series at 1:3 dilution for each compound. The final top concentration of each compound was 5 μM. DMSO at a final concentration of 0.1% was used as a control. VCaP cells cultured in DMEM with 8% fetal bovine serum (FBS) were seeded at 50K cells per well in a 200 μL volume into the compound plate and incubated at 37° C. in a C02 incubator for 24 h. The medium was carefully removed from the cells and the plate was placed on ice. […] AR levels in compound-treated wells were normalized to that of DMSO control and expressed as percent of control (PoC) (y). […]
[formula] • A=YMin (lowest AR level normalized to DMSO control in response to compound treatment, as determined by curve fit) • B=YMax (maximum AR level as determined by curve fit) • C=EC50 • D=Hill Slope • x=compound concentration • EC50=the concentration of compound when y=(YMax−YMin)/2 • DC50=the concentration of the compound when y=50% of DMSO control (50% AR degradation) • y=AR protein level normalized to DMSO control
The lowest measured AR level normalized to DMSO control in response to compound treatment, termed Y value, was used to characterize the compound-mediated AR degradation efficiency.

Protein sequences, listed by entry. Tags and fused reporters are not part of them. Lines headed by an entry give the natural chain unless they say otherwise; changes in a name come on top.
UniProt P10275: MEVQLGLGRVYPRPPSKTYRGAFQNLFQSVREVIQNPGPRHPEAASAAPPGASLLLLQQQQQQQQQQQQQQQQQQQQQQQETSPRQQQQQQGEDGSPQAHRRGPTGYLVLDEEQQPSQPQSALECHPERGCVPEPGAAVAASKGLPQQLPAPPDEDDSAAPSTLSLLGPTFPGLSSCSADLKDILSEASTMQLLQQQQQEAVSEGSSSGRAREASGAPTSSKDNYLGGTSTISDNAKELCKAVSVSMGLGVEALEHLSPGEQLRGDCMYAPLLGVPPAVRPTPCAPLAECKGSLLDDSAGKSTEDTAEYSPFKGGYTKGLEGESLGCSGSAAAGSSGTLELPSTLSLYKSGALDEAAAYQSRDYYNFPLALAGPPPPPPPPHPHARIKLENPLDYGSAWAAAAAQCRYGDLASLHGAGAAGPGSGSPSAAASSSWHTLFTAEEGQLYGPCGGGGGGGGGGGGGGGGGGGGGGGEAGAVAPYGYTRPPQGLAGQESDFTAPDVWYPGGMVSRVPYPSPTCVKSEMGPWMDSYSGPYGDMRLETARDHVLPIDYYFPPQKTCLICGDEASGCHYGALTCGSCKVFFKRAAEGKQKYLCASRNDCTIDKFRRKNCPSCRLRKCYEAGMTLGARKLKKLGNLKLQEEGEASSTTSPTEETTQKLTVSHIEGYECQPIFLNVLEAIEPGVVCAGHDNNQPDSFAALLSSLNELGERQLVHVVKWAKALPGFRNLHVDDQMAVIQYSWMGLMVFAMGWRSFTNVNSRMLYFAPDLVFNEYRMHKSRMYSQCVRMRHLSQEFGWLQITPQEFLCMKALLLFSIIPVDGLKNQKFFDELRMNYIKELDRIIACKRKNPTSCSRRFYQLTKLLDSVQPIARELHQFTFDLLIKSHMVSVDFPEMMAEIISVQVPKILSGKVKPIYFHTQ

How did the DC50 (AR ELISA, concentration when AR level = 50% of DMSO control) turn out when “2-((2S,6R)-4-(3-((trans-4-(3-(4-Cyano-3-(trifluoromethyl)phenyl)-5,5-dimethyl-4-oxo-2-thioxoimidazolidin-1-yl)cyclohexyl)oxy)propyl)-2,6-dimethylpiperazin-1-yl)-N-(4-(2,4-dioxotetrahydropyrimidin-1(2H)-yl)phenyl)acetamide hydrochloride [Cmpd 18]” was run?
The DC50 was no more than 5 nM.

What about the Ymin (lowest AR level normalized to DMSO control, class symbols) of the same substance?
Its Ymin is “** (20%<Y≤30%)”.
